Literature values, collected in patent US7727952B2, “Methods for treating spinal and bulbar muscular atrophy using LHRH analogs” (priority 2002, dated 2010).

Settings: Danek et al., 1994, Goldenberg et al., 1996, Neuschmid-Kaspar et al.; cited from earlier work

## CCCCCCC(=O)O[C@H]1CC[C@H]2[C@@H]3CCC4=CC(=O)CC[C@]4(C)[C@H]3CC[C@]12C [testosterone, testosterone enanthate]
  effects as a therapeutic agent for SBMA: insufficient and transient effects
